Values quoted from earlier work, collected in patent US9365016B2, “Fluorine-containing (meth) acrylic (co) polymer and molded body films thereof” (KANEKA CORPORATION, priority 2010, dated 2016).

Columns and labels:
[1] = at 25 C

In the case of `CCCC(C)(C)OOC(=O)C(C)(C)C`, the “10-hour half-life period temperature” value is listed as 53 C and the solubility into water [1] is listed as no more than 0.1 % by weight.
